Experimental findings from patent publication US20220370543A1, “METHODS OF TREATMENT FOR MODIFYING HEMODYNAMICS” (EBI ANTI SEPSIS B.V., priority 2019, published 2022) are described below.

A short description of the data set: Solubility measurements / aggregation points of AQGV salts. From the text:
At first attempts were made to mix a solution of the free base and an acid in order to achieve a concentrated DMSO solution of the salt and subsequently dilute this in water in order to determine solubility. […] It was decided to determine the solubility of the salts required by dilution of known amount of salts (not soluble) till a clear solution is obtained.

adenosine: where the note is “0.9% NaCl”, the “Solubility compared to AQGV-Ac” value is recorded as “did not provide solubility”. For the same substance, under “free base mixed with acid in DMSO”, the “Solubility in DMSO” value is on record as “did not dissolve in DMSO at all”.
